Laboratory results taken from patent US20200048267A1, “OGA INHIBITOR COMPOUNDS” (Janssen Pharmaceutica NV, priority 2017, published 2020).

Chains of the proteins cited; added tags and fusions are not shown.
UniProt O60502, whole entry: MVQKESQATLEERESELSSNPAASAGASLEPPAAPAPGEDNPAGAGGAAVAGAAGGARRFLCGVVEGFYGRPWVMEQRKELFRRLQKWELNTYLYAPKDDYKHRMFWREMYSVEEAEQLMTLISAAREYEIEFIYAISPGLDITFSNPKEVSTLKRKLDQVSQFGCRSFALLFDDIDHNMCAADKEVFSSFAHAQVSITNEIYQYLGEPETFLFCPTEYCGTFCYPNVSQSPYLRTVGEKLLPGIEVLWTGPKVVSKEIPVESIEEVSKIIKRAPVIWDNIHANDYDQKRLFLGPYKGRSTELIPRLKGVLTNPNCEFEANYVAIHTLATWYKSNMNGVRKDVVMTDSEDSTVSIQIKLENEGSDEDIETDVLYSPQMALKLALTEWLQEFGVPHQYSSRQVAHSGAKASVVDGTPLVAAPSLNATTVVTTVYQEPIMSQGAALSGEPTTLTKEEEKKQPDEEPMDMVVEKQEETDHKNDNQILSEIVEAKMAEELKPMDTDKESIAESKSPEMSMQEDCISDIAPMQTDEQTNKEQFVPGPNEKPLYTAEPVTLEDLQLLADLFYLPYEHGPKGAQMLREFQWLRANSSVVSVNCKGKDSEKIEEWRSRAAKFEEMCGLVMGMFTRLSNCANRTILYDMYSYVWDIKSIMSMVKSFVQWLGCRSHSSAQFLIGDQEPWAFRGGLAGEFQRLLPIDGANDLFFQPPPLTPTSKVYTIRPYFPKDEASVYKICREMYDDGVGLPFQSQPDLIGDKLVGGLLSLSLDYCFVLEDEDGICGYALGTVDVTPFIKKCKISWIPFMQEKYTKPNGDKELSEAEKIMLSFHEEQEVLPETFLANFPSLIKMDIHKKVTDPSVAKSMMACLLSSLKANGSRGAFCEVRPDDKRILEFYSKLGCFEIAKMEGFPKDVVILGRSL

Key:
[1] = biological target: recombinant human Meningioma Expressed Antigen 5 (MGEA5), also referred to as O-GlcNAcase (OGA) (Homo sapiens, UniProt O60502); test: OGA biochemical assay (inhibition of FM-GlcNAc hydrolysis, fluorescence)
From the text: The assay is based on the inhibition of the hydrolysis of fluorescein mono-β-D-N-Acetyl-Glucosamine (FM-GlcNAc) (Mariappa et al. 2015, Biochem J 470:255) by the recombinant human Meningioma Expressed Antigen 5 (MGEA5), also referred to as O-GlcNAcase (OGA). The hydrolysis FM-GlcNAc (Marker Gene technologies, cat # M1485) results in the formation of B-D-N-glucosamineacetate and fluorescein. The fluorescence of the latter can be measured at excitation wavelength 485 nm and emission wavelength 538 nm. An increase in enzyme activity results in an increase in fluorescence signal. Full length OGA enzyme was purchased at OriGene (cat # TP322411). The enzyme was stored in 25 mM Tris.HCl, pH 7.3, 100 mM glycine, 10% glycerol at −20° C. Thiamet G and GlcNAcStatin were tested as reference compounds (Yuzwa et al. 2008 Nature Chemical Biology 4:483; Yuzwa et al. 2012 Nature Chemical Biology 8:393). The assay was performed in 200 mM Citrate/phosphate buffer supplemented with 0.005% Tween-20. 35.6 g Na2HPO4 2 H2O (Sigma, # C0759) were dissolved in 1 L water to obtain a 200 mM solution. 19.2 g citric acid (Merck, # 1.06580) was dissolved in 1 L water to obtain a 100 mM solution. pH of the sodium phosphate solution was adjusted with the citric acid solution to 7.2. The buffer to stop the reaction consists of a 500 mM Carbonate buffer, pH 11.0. 734 mg FM-GlcNAc were dissolved in 5.48 mL DMSO to obtain a 250 mM solution and was stored at −20° C. OGA was used at 2 nM concentration and FM-GlcNAc at a 100 uM final concentration. Dilutions were prepared in assay buffer.
50 nl of a compound dissolved in DMSO was dispensed on Black Proxiplate™ 384 Plus Assay plates (Perkin Elmer, #6008269) and 3 μl fl-OGA enzyme mix added subsequently. Plates were pre-incubated for 60 min at room temperature and then 2 μl FM-GlcNAc substrate mix added. […] Plates were briefly centrifuged for 1 min at 1000rpm and incubate at room temperature for 6 h. To stop the reaction 5 μl STOP buffer were added and plates centrifuge again 1 min at 1000 rpm.
Fluorescence was quantified in the Thermo Scientific Fluoroskan Ascent or the PerkinElmer EnVision with excitation wavelength 485 nm and emission wavelength 538 nm.
For analysis a best-fit curve is fitted by a minimum sum of squares method. From this an IC50 value and Hill coefficient was obtained. High control (no inhibitor) and low control (saturating concentrations of standard inhibitor) were used to define the minimum and maximum values.

OGA = OGA (Homo sapiens, UniProt O60502); test: OGA cellular assay (ICC detection of O-GlcNAcylated proteins in HEK293 cells inducible for P301L mutant human Tau); settings: 6 hours incubation
Method: HEK293 cells inducible for P301L mutant human Tau (isoform 2N4R) were established at Janssen. Thiamet-G was used for both plate validation (high control) and as reference compound (reference EC50 assay validation). OGA inhibition is evaluated through the immunocytochemical (ICC) detection of O-GlcNAcylated proteins by the use of a monoclonal antibody (CTD110.6; Cell Signaling, #9875) detecting O-GlcNAcylated residues as previously described (Dorfmueller et al. 2010 Chemistry & biology, 17:1250). Inhibition of OGA will result in an increase of O-GlcNAcylated protein levels resulting in an increased signal in the experiment. Cell nuclei are stained with Hoechst to give a cell culture quality control and a rough estimate of immediate compounds toxicity, if any. ICC pictures are imaged with a Perkin Elmer Opera Phenix plate microscope and quantified with the provided software Perkin Elmer Harmony 4.1.
Cells were propagated in DMEM high Glucose (Sigma, #D5796) following standard procedures. 2 days before the cell assay cells are split, counted and seeded in Poly-D-Lysine (PDL) coated 96-wells (Greiner, #655946) plate at a cell density of 12,000 cells per cm^2 (4,000 cells per well) in 100 µl of Assay Medium (Low Glucose medium is used to reduce basal levels of GlcNAcylation) (Park et al. 2014 The Journal of biological chemistry 289:13519). At the day of compound test medium from assay plates was removed and replenished with 90 μl of fresh Assay Medium. 10 μl of compounds at a 10 fold final concentration were added to the wells. Plates were centrifuged shortly before incubation in the cell incubator for 6 hours. DMSO concentration was set to 0.2%. Medium is discarded by applying vacuum. For staining of cells medium was removed and cells washed once with 100 μl D-PBS (Sigma, #D8537). From next step onwards unless other stated assay volume was always 50 μl and incubation was performed without agitation and at room temperature. Cells were fixed in 50 μl of a 4% paraformaldehyde (PFA, Alpha aesar, # 043368) PBS solution for 15 minutes at room temperature. […] Before analysis samples were washed 2 times manually for 5 minutes in ICC base buffer.
Imaging is performed using Perkin Elmer Phenix Opera using a water 20× objective and recording 9 fields per well. Intensity readout at 488 nm is used as a measure of O-GlcNAcylation level of total proteins in wells. To assess potential toxicity of compounds nuclei were counted using the Hoechst staining. IC50-values are calculated using parametric non-linear regression model fitting. As a maximum inhibition Thiamet G at a 200 uM concentration is present on each plate. In addition, a concentration response of Thiamet G is calculated on each plate.

ENZYMATIC Emax (%) [1] [%] | ENZYMATIC hOGA; pIC50 [1] | CELLULAR Emax (%) (OGA) | CELLULAR hOGA; pEC50 (OGA) | SMILES
99.6 | 7.10 | 52.0 | 6.09 | CC(=O)Nc1ncc(CN2CCC3(CCN(c4nc(C)cnc4C)C3)C2)s1 (single isomer, unassigned) [41]
100.5 | 6.97 | 40.3 | <6 | CC(=O)Nc1ncc(CN2CCC3(CCN(c4nc(C)cnc4C)C3)C2)s1 (single isomer, unassigned) [42]
97.2 | 7.37 | 43.4 | <6 | CC(=O)Nc1ncc(CN2CCC3(CCN(c4ncc(F)cc4F)C3)C2)s1 (single isomer, unassigned) [47]
99.1 | 6.88 | – | – | CC(=O)Nc1ncc(CN2CCC3(CCN(c4ncc(F)cc4F)C3)C2)s1 (single isomer, unassigned) [48]
